{"source": "patent US9572878B2", "about": "“Method of combination therapy using an EGFR antagonist and anti-c-Met antibody” (SAMSUNG ELECTRONICS CO., LTD., priority 2013, dated 2017)", "test_system": "HCC827 ER #15", "experiment": "Combined use of erlotinib and antibodies in erlotinib resistant cell line, cell number by CCK-8", "assay_type": "cell-based, human", "description": "In the HCC827 ER #15, of which resistance to erlotinib was confirmed in Example 4, the effects of single treatments and combined treatment of erlotinib and the anti-c-Met antibody L3-1Y manufactured in the Reference Example were tested.\nIn a 96 well plate, diluted HCC827 ER #15 was seeded at 5000 cells/well in a […] medium (GIBCO) containing 10% FBS, and then, incubated at 37° C. overnight. On the next day, the medium was replaced with a RPMI1640 medium containing 1% FBS (GIBCO), and then, the antibody was serially diluted from 100 ug/ml, and the cells were treated therewith at 100 ul. For co-administration, the cells were treated with 10 nM or 100 nM erlotinib, together with the antibody. After 5 days, the number of cells was measured using a CCK-8 reagent (Dojindo laboratory).\nMeanwhile, even when a test was conducted again while fixing the concentration of the drugs used for co-administration, the identical effects could be confirmed. The cell viability of HCC827 ER#15 is shown in FIG. 5 when the antibodies and erlotinib were co-administered while fixing the concentration of the antibodies at 0.14 μg/ml, and the concentration of erlotinib at 10 nM.", "data": [{"substance": "Cetuximab [reference compound]", "values": [{"measurement": "synergistic effect of co-administration with erlotinib", "setting": "HCC827 ER #15, antibody dilution series with 10 nM or 100 nM erlotinib, 5 days, FIGS. 4a-4d", "value": "synergistic effect was not observed"}, {"measurement": "synergistic effects on cell viability, co-administration with erlotinib at fixed concentrations", "setting": "HCC827 ER#15, antibodies 0.14 μg/ml, erlotinib 10 nM, FIG. 5", "value": "synergistic effects were not observed"}]}]}
